PubChem BioAssay (NCATS)
The entries are a selection whose mix differs from that of the whole data set. Inconclusive results are not listed. Calls of active or inactive are those of the source. Calls come from the whole dose curve; as a rule, active = well fitted curve in the direction sought with a large enough effect; inconclusive = small, poorly fitted or top-dose-only effect, or another doubt; inactive = no such curve, though single readings can be large; an effect the other way counts as inactive or inconclusive.

Legend:
[1] = BET inhibitor-based combinations targeting novel dependencies in MECOM-rearranged (r) AML: OCI-AML3 cell line (AID 2202232); settings: OCI-AML3 viability, CellTiter-Glo luminescence, 48 h; note: nearly all actives have a fitted effect of over 35% in size
[2] = BET inhibitor-based combinations targeting novel dependencies in MECOM-rearranged (r) AML: MV-4-11 cell line (AID 2202233); settings: MV-4-11 AML viability, CellTiter-Glo luminescence, 48 h; note: nearly all actives have a fitted effect of over 45% in size
[3] = BET inhibitor-based combinations targeting novel dependencies in MECOM-rearranged (r) AML: HNT-34 cell line (AID 2202234); settings: HNT-34 AML viability, CellTiter-Glo luminescence, 48 h; note: nearly all actives have a fitted effect of over 35% in size
[4] = BET inhibitor-based combinations targeting novel dependencies in MECOM-rearranged (r) AML: AML-191 cell line (AID 2202236; note: nearly all actives have a fitted effect of over 35% in size); settings: AML-191 viability, CellTiter-Glo luminescence, 48 h
[5] = BET inhibitor-based combinations targeting novel dependencies in MECOM-rearranged (r) AML: AML-194 cell line (AID 2202237; note: nearly all actives have a fitted effect of over 40% in size); settings: AML-194 (MECOM-r AML) viability, CellTiter-Glo, 48 h
Potency is the fitted concentration of half-maximal effect.

| SMILES | Potency [1] | Potency [2] | Potency [3] | Potency [4] | Potency [5] |
| --- | --- | --- | --- | --- | --- |
| CCn1c(=O)n([C@@H]2CCN(CC3CCCCCCC3)C[C@H]2CO)c2ccccc21 | active: 13.2 µM |  |  |  |  |
| N[C@@H](Cc1ccc([N+]([O-])(CCCl)CCCl)cc1)C(=O)O |  | active: 6.61 µM | active: 4.17 µM | active: 5.9 µM | active: 3.32 µM |
